{
  "source": "patent US11590089B2",
  "about": "“Beta-2 selective adrenergic receptor agonists” (The Board of Trustees of the Leland Stanford Junior …, priority 2017, dated 2023)",
  "molecular_target": "β2-AR (Homo sapiens, UniProt P07550)",
  "assay": "radioligand binding assay, β2-AR, [3H]CGP12177",
  "conditions": "in words, refers to Table 1 and 2",
  "experimental": "The binding affinities of exemplary compounds of interest at β1AR and β2AR were evaluated in a binding assay.",
  "note": "Counter-ions that a name gives are not always drawn.",
  "data": [
    {"compound": "CN[C@@H]1CCc2c(ccc(O)c2O)[C@H]1O", "note": "[AS443, (5R,6R)-6-(methylamino)-5,6,7,8-tetrahydronaphthalene-1,2,5-triol]", "values": [
      {"measurement": "selectivity for β2-AR over β1-AR", "result": "high selectivity"}
    ]},
    {"compound": "N[C@@H]1CCc2c(ccc(O)c2O)[C@H]1O", "note": "[AS446, (5R,6R)-6-amino-5,6,7,8-tetrahydronaphthalene-1,2,5-triol×TFA]", "values": [
      {"measurement": "selectivity for β2-AR over β1-AR", "result": "high selectivity"}
    ]}
  ]
}
